Target: T1, human neuronal constitutive NOS (nNOS) (Homo sapiens, UniProt P29475)
T1 construct: purchased ALEXIS; host or cells: Baculovirus-infected Sf9 cells
Test: biochemical

Structure (SMILES): CN1CCC(n2cnc3cc(NC(=N)c4cccs4)ccc32)CC1 [Compound 59]
- IC50: 1720 nM
